Chains of the proteins cited; added tags and fusions are not shown. Residues count along the entry.
UniProt P01375, 77-233 limits assumed: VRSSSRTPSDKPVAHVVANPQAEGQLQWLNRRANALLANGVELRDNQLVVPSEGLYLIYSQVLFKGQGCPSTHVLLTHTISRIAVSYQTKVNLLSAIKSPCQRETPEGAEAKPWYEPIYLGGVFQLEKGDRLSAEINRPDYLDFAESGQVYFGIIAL

According to US20090022659A1 (ALDERBIO, published 2009):

Target: Tumor Necrosis Factor-alpha (TNF-α), R&D systems 210-TA / 210-TA-CF (human) (UniProt P01375)

## Remicade® (infliximab) (antibody)
  EC50 (read off the curve); OD versus antibody concentration (the assay is not named for this figure): 0.01 µg/mL
